Measured values: the OPERA property sets (Mansouri et al. 2018)
≈ marks a conversion by molar mass, not a printed value.

Structure (SMILES): Cc1cc([N+](=O)[O-])cc([N+](=O)[O-])c1O
- solubility: 999 µM (≈ 198 µg/mL)
